This test deals with hTRPM8 (Homo sapiens, UniProt Q7Z2W7). Put plainly: Cell line stably expressing TRPM8, agonist assay, compounds of Formula (III). The settings on record: Table 3.1. The protocol: A mammalian cell line derivative which stably expresses TRPM8 was used in biological assays in association with testing the present compounds with cool-tasting or -feeling properties (Servant et al. US 2007/0259354 A1 and references cited therein, which is incorporated herein by reference in their entirety). Typical compound concentrations tested were 50 μM, 20 μM, 10 μM, 5 μM, 2 μM, 1 μM, 0.5 μM, 0.1 μM, 0.05 μM, 0.01 μM, and other concentration points in between. The present compounds have shown strong activity as agonists of hTRPM8. Assay results for compounds are illustrated in Table 3.1 below. Specifically, the Compounds listed in Table 3.1, i.e., Compounds 3.A1 to Compounds 3.G1 are specific compounds described above falling within Formula (III).

By UniProt entry, the sequences of proteins in these tests, tags left out.
UniProt Q7Z2W7, whole entry: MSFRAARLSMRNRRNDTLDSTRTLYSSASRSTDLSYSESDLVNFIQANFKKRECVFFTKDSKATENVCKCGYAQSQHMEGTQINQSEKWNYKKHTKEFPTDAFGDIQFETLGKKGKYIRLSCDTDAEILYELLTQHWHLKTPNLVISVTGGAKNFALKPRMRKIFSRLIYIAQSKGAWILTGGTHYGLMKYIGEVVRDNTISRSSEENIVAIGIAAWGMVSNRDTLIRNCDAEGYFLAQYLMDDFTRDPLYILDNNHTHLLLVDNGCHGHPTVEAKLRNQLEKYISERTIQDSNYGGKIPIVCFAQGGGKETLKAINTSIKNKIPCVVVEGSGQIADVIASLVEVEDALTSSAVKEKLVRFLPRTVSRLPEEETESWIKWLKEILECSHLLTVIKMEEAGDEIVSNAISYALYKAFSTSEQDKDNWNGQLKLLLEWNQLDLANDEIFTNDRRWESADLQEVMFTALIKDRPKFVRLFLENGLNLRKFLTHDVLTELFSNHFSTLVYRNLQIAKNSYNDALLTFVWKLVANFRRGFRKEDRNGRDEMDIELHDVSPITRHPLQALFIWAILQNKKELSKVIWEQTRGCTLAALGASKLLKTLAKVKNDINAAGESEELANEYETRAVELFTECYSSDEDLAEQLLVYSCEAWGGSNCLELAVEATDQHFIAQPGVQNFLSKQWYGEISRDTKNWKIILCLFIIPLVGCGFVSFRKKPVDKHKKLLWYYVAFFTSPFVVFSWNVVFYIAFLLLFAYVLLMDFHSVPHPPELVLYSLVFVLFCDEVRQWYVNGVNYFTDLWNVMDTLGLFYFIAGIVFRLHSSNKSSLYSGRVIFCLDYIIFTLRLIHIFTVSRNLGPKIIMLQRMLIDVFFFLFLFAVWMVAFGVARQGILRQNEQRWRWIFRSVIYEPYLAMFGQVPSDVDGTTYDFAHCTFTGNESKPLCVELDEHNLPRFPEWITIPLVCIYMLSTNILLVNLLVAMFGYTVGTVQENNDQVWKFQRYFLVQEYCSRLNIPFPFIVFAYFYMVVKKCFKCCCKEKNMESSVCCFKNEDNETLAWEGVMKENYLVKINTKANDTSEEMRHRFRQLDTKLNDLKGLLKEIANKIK

Structures are written as SMILES.

Regarding `CCC(CC)C(C)C(=O)N(C)CC(=O)c1ccccc1` (centres unmarked), the EC50 – broadly, the concentration giving half of the maximal effect – turned out to be 2350 nM and the “EC50 Ratio (WS3)” value was found to be 3.8.
